# Reference: publication PMC4051630, “A Comparison of Protein Kinases Inhibitor Screening Methods Using Both Enzymatic Activity and Binding Affinity Determination” (PLoS ONE, 2014)
# Amino acid sequences for entries named in this document (tags omitted). Residues count along the entry.
# UniProt Q14289, 425-683 limits assumed: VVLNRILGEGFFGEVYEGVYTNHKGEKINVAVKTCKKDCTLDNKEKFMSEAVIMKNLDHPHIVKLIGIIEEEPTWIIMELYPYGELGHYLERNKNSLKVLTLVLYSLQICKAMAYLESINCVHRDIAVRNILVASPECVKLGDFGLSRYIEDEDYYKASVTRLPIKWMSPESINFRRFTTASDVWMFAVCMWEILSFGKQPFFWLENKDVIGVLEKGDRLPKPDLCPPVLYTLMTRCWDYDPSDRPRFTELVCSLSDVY
# UniProt Q9P286, 449-700 limits assumed: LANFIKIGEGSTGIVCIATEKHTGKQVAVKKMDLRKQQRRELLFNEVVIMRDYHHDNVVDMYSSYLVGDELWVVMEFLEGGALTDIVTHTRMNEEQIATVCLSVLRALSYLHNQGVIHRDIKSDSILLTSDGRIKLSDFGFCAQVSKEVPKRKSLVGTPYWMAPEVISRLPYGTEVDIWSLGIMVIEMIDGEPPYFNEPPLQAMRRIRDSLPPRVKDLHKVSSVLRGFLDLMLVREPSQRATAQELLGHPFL
# UniProt Q9Y243, 122-479: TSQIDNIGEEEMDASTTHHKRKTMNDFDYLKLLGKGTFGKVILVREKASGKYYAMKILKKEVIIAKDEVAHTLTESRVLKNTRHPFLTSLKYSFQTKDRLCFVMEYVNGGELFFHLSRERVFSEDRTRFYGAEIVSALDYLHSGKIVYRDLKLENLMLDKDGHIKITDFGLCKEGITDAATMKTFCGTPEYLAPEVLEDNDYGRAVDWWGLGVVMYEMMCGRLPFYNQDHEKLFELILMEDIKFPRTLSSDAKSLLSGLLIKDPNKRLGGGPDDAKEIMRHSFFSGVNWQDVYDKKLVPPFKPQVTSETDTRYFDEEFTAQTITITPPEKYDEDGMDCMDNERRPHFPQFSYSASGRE
# Legend:
# Test in all cases: Differential Scanning Fluorimetry (DSF) Tm shift
# Format in all cases: binding
# Conditions in all cases: 2 µM protein, 10 µM inhibitor, average of 3 experiments, each in duplicate
# SRC Catalytic Domain = SRC Catalytic Domain (Homo sapiens, UniProt P12931); design: For all of them, we expressed and purified the catalytic domain separately; His-tag; made in house; host or cells: Escherichia coli
# FAK2 Catalytic Domain = target: T1, FAK2 Catalytic Domain (Homo sapiens, UniProt Q14289)
# T1 construct: For all of them, we expressed and purified the catalytic domain separately; His-tag; made in house; host or cells: Escherichia coli
# [1] = target: T2, STK3 Catalytic domain+SARAH (Homo sapiens, UniProt Q13188); design: for 8, we also made a longer version containing one or more additional domains; His-tag; made in house; host or cells: Escherichia coli
# T2 sequence (Q13188 1-491): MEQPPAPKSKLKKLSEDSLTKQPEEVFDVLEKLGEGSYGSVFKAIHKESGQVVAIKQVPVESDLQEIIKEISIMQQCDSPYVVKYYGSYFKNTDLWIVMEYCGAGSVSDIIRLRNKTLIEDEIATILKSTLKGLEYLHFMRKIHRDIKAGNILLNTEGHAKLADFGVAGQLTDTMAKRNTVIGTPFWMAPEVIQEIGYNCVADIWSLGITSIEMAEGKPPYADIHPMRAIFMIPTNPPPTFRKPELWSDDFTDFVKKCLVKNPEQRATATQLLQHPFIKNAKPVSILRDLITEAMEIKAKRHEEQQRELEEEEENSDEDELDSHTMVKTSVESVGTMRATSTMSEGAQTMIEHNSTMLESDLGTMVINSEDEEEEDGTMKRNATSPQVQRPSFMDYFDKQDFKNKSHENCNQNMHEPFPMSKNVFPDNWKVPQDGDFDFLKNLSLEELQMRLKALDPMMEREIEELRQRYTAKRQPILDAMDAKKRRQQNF
# [2] = target: SRC Catalytic Domain+SH2+SH3 (Homo sapiens, UniProt P12931)
# PAK7 Catalytic Domain = PAK7 Catalytic Domain (Homo sapiens, UniProt Q9P286); design: For all of them, we expressed and purified the catalytic domain separately; His-tag; made in house; host or cells: Escherichia coli
# AKT3 Catalytic Domain = AKT3 Catalytic Domain (Homo sapiens, UniProt Q9Y243); design: AKT3 (Q9Y243); CD; His-tag; made in house; host or cells: Escherichia coli
# STK3 Catalytic Domain = target: T3, STK3 Catalytic Domain (Homo sapiens, UniProt Q13188); design: For all of them, we expressed and purified the catalytic domain separately; His-tag; made in house; host or cells: Escherichia coli
# T3 sequence (Q13188 27-278 limits assumed): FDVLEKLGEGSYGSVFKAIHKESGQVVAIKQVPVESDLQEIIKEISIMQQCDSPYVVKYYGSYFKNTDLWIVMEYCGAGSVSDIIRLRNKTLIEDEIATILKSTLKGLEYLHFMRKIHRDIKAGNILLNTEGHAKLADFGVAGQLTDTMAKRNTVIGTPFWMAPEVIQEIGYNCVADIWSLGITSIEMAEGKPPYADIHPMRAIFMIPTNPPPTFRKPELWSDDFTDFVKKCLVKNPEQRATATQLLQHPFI
compound,measurement,setting,value
CO[C@@H]1[C@H](N(C)C(=O)c2ccccc2)C[C@H]2O[C@]1(C)n1c3ccccc3c3c4c(c5c6ccccc6n2c5c31)C(=O)NC4,Melting temperature (Tm) shift,SRC Catalytic Domain,1.2 degrees Celcius
same,Melting temperature (Tm) shift,FAK2 Catalytic Domain,3.4 degrees Celcius
same,Melting temperature (Tm) shift,[1],6.9 degrees Celcius
same,Melting temperature (Tm) shift,[2],1.1 degrees Celcius
same,Melting temperature (Tm) shift,PAK7 Catalytic Domain,0.5 degrees Celcius
same,Melting temperature (Tm) shift,AKT3 Catalytic Domain,0.9 degrees Celcius
same,Melting temperature (Tm) shift,STK3 Catalytic Domain,4.1 degrees Celcius
